Data: ChEMBL document CHEMBL3286196 (J Med Chem, 2014)

Protein sequences, listed by entry. Tags and fused reporters are not part of them. Lines headed by an entry give the natural chain unless they say otherwise; changes in a name come on top. Chains listed by the source or under a name are the forms on record and can include a tag or linker. Residues count along the entry.
UniProt Q16881, whole entry: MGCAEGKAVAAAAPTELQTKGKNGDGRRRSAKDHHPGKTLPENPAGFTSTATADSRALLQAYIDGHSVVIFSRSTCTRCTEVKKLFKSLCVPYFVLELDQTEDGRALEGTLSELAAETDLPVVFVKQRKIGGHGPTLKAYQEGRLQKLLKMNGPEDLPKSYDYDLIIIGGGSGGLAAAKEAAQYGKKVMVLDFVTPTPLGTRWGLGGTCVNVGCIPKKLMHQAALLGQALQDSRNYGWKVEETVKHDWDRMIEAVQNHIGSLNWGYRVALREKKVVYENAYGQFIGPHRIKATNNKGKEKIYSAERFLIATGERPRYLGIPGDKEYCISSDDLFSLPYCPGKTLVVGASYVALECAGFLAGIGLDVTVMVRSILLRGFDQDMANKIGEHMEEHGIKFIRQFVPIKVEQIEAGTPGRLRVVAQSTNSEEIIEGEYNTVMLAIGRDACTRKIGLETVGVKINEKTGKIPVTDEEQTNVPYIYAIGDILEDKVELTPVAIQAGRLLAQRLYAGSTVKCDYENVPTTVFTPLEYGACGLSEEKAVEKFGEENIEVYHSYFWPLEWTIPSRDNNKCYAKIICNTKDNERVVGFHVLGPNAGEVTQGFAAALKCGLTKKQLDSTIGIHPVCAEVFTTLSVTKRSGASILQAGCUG
UniProt Q9NNW7, 37-524 limits assumed: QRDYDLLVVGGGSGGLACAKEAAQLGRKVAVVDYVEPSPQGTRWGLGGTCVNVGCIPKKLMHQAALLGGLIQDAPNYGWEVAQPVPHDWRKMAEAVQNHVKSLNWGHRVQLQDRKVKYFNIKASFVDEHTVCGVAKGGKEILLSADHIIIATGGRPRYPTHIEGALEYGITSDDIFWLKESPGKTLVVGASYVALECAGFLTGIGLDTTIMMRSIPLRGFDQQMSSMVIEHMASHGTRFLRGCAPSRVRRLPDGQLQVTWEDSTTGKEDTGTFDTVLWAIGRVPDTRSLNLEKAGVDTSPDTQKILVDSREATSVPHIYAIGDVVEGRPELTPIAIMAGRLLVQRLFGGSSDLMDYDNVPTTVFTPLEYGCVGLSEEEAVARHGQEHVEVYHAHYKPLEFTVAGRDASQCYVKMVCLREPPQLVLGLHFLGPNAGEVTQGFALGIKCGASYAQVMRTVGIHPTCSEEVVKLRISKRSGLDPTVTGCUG
UniProt Q86VQ6, whole entry: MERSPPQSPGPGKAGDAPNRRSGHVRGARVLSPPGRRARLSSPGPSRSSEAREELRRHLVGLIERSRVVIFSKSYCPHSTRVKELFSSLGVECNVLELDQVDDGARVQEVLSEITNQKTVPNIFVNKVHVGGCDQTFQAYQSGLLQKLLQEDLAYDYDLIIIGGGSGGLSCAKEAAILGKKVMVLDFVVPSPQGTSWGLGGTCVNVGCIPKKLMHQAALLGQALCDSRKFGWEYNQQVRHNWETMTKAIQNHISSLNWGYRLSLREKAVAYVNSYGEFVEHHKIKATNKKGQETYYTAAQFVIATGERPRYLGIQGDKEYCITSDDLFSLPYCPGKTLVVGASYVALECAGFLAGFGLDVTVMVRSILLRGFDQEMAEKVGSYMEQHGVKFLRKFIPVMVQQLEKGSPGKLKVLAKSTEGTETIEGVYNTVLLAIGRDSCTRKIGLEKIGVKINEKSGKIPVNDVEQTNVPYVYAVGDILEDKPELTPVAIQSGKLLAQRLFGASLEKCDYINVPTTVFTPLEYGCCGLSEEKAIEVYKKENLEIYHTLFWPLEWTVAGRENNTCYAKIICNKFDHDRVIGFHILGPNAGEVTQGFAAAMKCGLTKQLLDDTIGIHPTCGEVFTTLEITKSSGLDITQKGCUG
UniProt O89049, with tags, fused parts or gaps U498C: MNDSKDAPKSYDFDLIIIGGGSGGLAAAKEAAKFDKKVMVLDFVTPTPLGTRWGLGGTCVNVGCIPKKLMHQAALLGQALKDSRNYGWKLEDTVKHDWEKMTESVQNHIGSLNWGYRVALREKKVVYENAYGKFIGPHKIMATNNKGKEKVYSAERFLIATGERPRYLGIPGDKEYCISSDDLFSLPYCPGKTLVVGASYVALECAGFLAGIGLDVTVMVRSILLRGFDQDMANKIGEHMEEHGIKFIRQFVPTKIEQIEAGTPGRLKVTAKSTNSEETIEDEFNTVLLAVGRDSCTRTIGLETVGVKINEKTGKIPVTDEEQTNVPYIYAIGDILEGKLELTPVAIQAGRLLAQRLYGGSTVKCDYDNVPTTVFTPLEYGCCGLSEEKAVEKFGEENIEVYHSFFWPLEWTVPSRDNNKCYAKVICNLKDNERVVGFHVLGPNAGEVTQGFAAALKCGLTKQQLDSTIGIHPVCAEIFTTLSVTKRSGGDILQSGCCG
UniProt P70619: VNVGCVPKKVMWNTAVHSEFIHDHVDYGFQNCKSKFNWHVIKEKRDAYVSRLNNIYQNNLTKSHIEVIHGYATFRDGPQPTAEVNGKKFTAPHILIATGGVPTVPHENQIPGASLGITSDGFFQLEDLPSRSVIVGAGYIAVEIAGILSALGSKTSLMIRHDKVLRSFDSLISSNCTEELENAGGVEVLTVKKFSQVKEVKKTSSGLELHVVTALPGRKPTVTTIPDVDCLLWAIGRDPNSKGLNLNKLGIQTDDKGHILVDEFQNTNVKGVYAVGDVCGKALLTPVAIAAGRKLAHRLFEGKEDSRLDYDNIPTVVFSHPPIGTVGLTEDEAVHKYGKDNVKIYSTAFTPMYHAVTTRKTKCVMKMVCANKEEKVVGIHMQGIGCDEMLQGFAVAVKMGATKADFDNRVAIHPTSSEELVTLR

Key:
HL-60 [1] = experiment: Cytotoxicity against human HL60 cells assessed as inhibition of proliferation after 48 hrs by MTT assay
HL-60 [2] = experiment: Cytotoxicity against human HL60 cells assessed as inhibition of proliferation after 72 hrs by MTT assay
[3] = Cytotoxicity against human […] cells assessed as inhibition of proliferation after 48 hrs by MTT assay
HeLa = experiment: Cytotoxicity against human HeLa cells assessed as inhibition of proliferation after 48 hrs by MTT assay
HepG2 = experiment: Cytotoxicity against human HepG2 cells assessed as inhibition of proliferation after 48 hrs by MTT assay
Thioredoxin reductase = Thioredoxin reductase (Homo sapiens, UniProt Q16881+Q9NNW7+Q86VQ6); experiment: Inhibition of human TrxR activity in human HeLa cell lysate after 12 hrs by insulin reduction assay
[4] = Cytotoxicity against human L02 cells assessed as cell viability after 48 hrs by MTT assay
HEK-293T = experiment: Cytotoxicity against human HEK293T cells assessed as cell viability after 48 hrs by MTT assay
[5] = Inhibition of NADPH-reduced rat recombinant wild type TrxR after 30 mins by DTNB assay
[6] = target: Thioredoxin reductase 1, cytoplasmic (Rattus norvegicus, UniProt O89049); experiment: Inhibition of NADPH-reduced rat recombinant TrxR1 U498C mutant after 30 mins by DTNB assay
Glutathione reductase = Glutathione reductase (Rattus norvegicus, UniProt P70619); experiment: Inhibition of rat recombinant glutathione reductase after 30 mins by DTNB assay

| Structure (SMILES) | pIC50 (HL-60 [1]) | pIC50 (HL-60 [2]) | pIC50 [3] | pIC50 (HeLa) | pIC50 (HepG2) | pIC50 (Thioredoxin reductase) | pIC50 [4] | pIC50 (HEK-293T) | pIC50 [5] | pIC50 [6] | pIC50 (Glutathione reductase) |
| --- | --- | --- | --- | --- | --- | --- | --- | --- | --- | --- | --- |
| Nc1ccc([As]2SCCS2)cc1 | 5.60 | 5.77 | 5.00 | 5.21 | < 5.00 | – | – | – | – | – | – |
| Nc1ccc([As]=O)cc1 (configuration not stated) | 5.21 | 5.29 | 5.03 | 5.11 | < 5.00 | 5.40 | – | – | – | – | – |
| CC(=O)Nc1ccc([As]2SCCS2)cc1 | 5.60 | 5.70 | 5.05 | < 5.00 | < 5.00 | – | – | – | – | – | – |
| Nc1ccc([As]2SCCCS2)cc1 | 6.15 | 6.22 | 5.55 | 5.47 | < 5.00 | 5.85 | 4.99 | 5.57 | 7.48 | < 5.00 | < 5.00 |
| CC(=O)Nc1ccc([As]2SCCCS2)cc1 | 6.10 | 6.15 | 5.47 | 5.34 | < 5.00 | – | – | – | – | – | – |

pIC50: −log10 of the molar value.
